The text below walks through data of patent publication US8906933B2, “Dihydropyrimidin-2(1H)-one compounds as neurokinin-3 receptor antagonists” (N30 Pharmaceuticals, Inc., priority 2010, dated 2014).

The chains behind the UniProt entries cited, without tags or fusion partners. Where a name states a change or a piece, a line headed by the entry shows the natural chain unless it says otherwise.
UniProt P11766: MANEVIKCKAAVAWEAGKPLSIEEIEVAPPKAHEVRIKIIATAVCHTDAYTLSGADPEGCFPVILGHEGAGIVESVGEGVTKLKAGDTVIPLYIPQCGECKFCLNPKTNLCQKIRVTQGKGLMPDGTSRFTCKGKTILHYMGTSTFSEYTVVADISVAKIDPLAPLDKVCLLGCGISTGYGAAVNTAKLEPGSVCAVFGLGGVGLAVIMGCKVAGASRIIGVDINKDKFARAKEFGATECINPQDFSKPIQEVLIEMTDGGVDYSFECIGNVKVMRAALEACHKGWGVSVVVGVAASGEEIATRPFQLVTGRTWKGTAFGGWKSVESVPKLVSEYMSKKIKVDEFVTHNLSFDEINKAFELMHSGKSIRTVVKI

One may read the IC50 as the concentration that gives 50% inhibition. Higher therefore signals weaker potency.

This experiment deals with GSNOR (Homo sapiens (Human), UniProt P11766). Briefly: GSNOR IC50 (method in incorporated applications). It is filed as biochemical.

For `CCOc1cc([C@@H]2NC(=O)NC(c3cccnc3)=C2c2ccsc2)cc([N+](=O)[O-])c1O` [4-(3-ethoxy-4-hydroxy-5-nitrophenyl)-6-(pyridin-3-yl)-5-(thiophen-3-yl)-3,4-dihydropyrimidin-2(1H)-one], the IC50 was 16 nM.
